Assay results reported in PubChem BioAssay AID493011 (Sanford-Burnham Center for Chemical Genomics, 2011).
The list shows a part of the results, in another mix than the full data. Some salts or complexes appear as unconnected parts, following the source record. Activity calls are given as the source filed them.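 Rule for the calls: active = at least 40% inhibition at 20 µM here, with at most 30% in a related deaminase screen; inactive = the rest.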

Sequences of proteins named here, by UniProt entry; tags and fusion partners are left off.
UniProt P31941, whole entry: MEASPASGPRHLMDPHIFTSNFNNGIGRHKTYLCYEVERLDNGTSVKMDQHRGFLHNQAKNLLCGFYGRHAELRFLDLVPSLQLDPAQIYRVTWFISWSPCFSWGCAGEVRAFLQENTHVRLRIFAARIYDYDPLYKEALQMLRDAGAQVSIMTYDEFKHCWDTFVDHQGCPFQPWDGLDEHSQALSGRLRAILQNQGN

molecular target: DNA dC->dU-editing enzyme APOBEC-3A (Homo sapiens) (UniProt P31941); assay: APOBEC3A ssDNA deaminase inhibitors, primary screen, selectivity assay for APOBEC3G inhibitor project, biochemical, FAM/TAMRA oligo cleavage fluorescence (AID 493011); details: recombinant A3A, FAM/TAMRA ssDNA deamination fluorescence; at 20 µM; hits give high values;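 note: plate controls were A3A with DMSO for no effect and wells lacking A3A enzyme for full effect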

| SMILES | inhibition |
| --- | --- |
| CCN(CC)CCCOC(=O)C(O)(c1ccccc1)c1ccccc1 | inactive: -1.64% |
| Cc1cccc(C)c1OP(C)(N)=O (configuration not stated) | inactive: 1.47% |
| CC(C)(C)c1ccc(OP(C)(=O)Nc2ccc(SC(F)(F)F)cc2)cc1 (configuration not stated) | inactive: -4.86% |
| O=[N+]([O-])c1cc([N+](=O)[O-])c(Nc2cccnc2)c([N+](=O)[O-])c1 | inactive: 1.98% |
| Cc1cc(C)cc(OP(C)(N)=O)c1 (configuration not stated) | inactive: -5.56% |
| COc1ccc(OP(C)(=O)Nc2cccc(F)c2)cc1 (configuration not stated) | inactive: -2.81% |
| COc1ccccc1OP(C)(=O)Nc1cc(Cl)ccc1C (configuration not stated) | inactive: -1.32% |
| Cc1ccc(NP(C)(=O)Oc2ccccc2)c(C)c1 (configuration not stated) | inactive: 0.343% |
| COc1ccccc1OP(C)(=O)Nc1ccc(C)cc1 (configuration not stated) | inactive: 0.757% |
| CCOC(=O)c1ccc(NP(C)(=O)Oc2ccccc2)cc1 (configuration not stated) | inactive: -2.13% |
| CP(=O)(Nc1ccccc1Br)Oc1ccccc1 (configuration not stated) | inactive: -0.507% |
| COc1ccccc1OP(C)(=O)Nc1ccccc1 (configuration not stated) | inactive: 1.54% |
| CP(=S)(Nn1cnnc1)Oc1ccccc1 (configuration not stated) | inactive: -2.57% |
| Cc1cc(C)cc(OP(C)(=O)Nc2ccc(SC(F)(F)F)cc2)c1 (configuration not stated) | inactive: -2.44% |
| CP(=O)(NC(=O)Nc1ccccc1)Oc1ccccc1 (configuration not stated) | inactive: -5.2% |
| CCc1ccc(OP(C)(=O)N2CCN(c3ccc([N+](=O)[O-])cc3)CC2)cc1 (configuration not stated) | inactive: -1.61% |
| CP(=O)(Oc1ccccc1)OC(c1ccccc1)C(F)(F)F (configuration not stated) | inactive: 3.21% |
| CP(=O)(Nc1ccc(SC(F)(F)F)cc1)Oc1ccc(Cl)cc1 (configuration not stated) | inactive: -0.023% |
| Cc1cccc(C)c1OP(C)(=O)Nc1ccc(SC(F)(F)F)cc1 (configuration not stated) | inactive: -3.34% |
| CP(=O)(Nc1ccccn1)Oc1ccc(Cl)cc1 (configuration not stated) | inactive: 1.83% |
| O=[N+]([O-])c1cc([N+](=O)[O-])c(O)c([N+](=O)[O-])c1.c1ccc(Oc2ccncc2)cc1 | inactive: -0.158% |
| CCOC(=O)c1ccc(NP(C)(=O)Oc2ccc(OC)cc2)cc1 (configuration not stated) | inactive: -1.05% |

| SMILES | inhibition |
| --- | --- |
| CCOP(C)(=S)SCC(=O)NC(C)C(=O)O (configuration not stated) | inactive: -2.43% |
| O=[N+]([O-])c1cc([N+](=O)[O-])c(-n2nnc3ccccc32)c([N+](=O)[O-])c1 | inactive: 2.08% |
| Cc1nc2ccc3ccccc3c2s1.O=[N+]([O-])c1cc([N+](=O)[O-])c(O)c([N+](=O)[O-])c1 | inactive: -4.93% |
| O=[N+]([O-])c1cc([N+](=O)[O-])c(-c2cnn(-c3ccccc3)c2)c([N+](=O)[O-])c1 | inactive: -2.4% |
| CCOC(=O)C(CC)C1=NC(C)(C)Cc2ccccc21.O=[N+]([O-])c1cc([N+](=O)[O-])c(O)c([N+](=O)[O-])c1 (configuration not stated) | inactive: -1.66% |
| CC1=C2N=C(C=C3N=C(C(C)=C4[N-][C@@](C)([C@@H]5N=C1[C@](C)(CCC(=O)NC[C@@H](C)OP(=O)([O-])O[C@H]1[C@@H](O)[C@@H](n6cnc7cc(C)c(C)cc76)O[C@@H]1CO)[C@H]5CC(N)=O)[C@@](C)(CC(N)=O)[C@@H]4CCC(N)=O)[C@@](C)(CC(N)=O)[C@@H]3CCC(N)=O)C(C)(C)[C@@H]2CCC(N)=O.[C-]#N.[Co+3] | inactive: 8.18% |
| O=[N+]([O-])c1cc([N+](=O)[O-])c(Nc2nnnn2CCO)c([N+](=O)[O-])c1 | inactive: -1.27% |
| CCCOc1ccc(NP(C)(=O)Oc2ccc(Cl)cc2)cc1 (configuration not stated) | inactive: -3.24% |
| CP(=O)(Nc1ccc(SC(F)(F)F)cc1)Oc1ccccc1 (configuration not stated) | inactive: -1.55% |
| CN1CCCCC1COC(=O)C1(O)c2ccccc2CCc2ccccc21 (configuration not stated) | inactive: -1.21% |
| COc1ccccc1OP(C)(=O)Nc1c(C)cccc1C (configuration not stated) | inactive: -0.316% |
| O=C(O)c1cccc(Nc2c([N+](=O)[O-])cc([N+](=O)[O-])cc2[N+](=O)[O-])c1 | inactive: 1.43% |
| CC1=NCCc2c1[nH]c1ccccc21.O=[N+]([O-])c1cc([N+](=O)[O-])c(O)c([N+](=O)[O-])c1 | inactive: 1.98% |
| CCOC(=O)c1ccc(NP(C)(=O)Oc2cc(C)cc(C)c2)cc1 (configuration not stated) | inactive: 1.56% |
| Cc1cc(C)cc(OP(C)(=O)Nc2ccc(C)cc2C)c1 (configuration not stated) | inactive: 3.57% |
| COc1ccccc1OP(C)(=O)Nc1cccc(Br)c1 (configuration not stated) | inactive: 1.61% |
| Cc1ccc(C)c(NP(C)(=O)Oc2ccccc2)c1 (configuration not stated) | inactive: 5.78% |
| Cc1cc(C)cc(OP(C)(=O)Nc2ccccn2)c1 (configuration not stated) | inactive: -1.88% |
| CP(=O)(Nc1cccc(Br)c1)Oc1ccccc1 (configuration not stated) | inactive: -1.37% |
| CP(=O)(Nc1ccccc1F)Oc1ccccc1 (configuration not stated) | inactive: -1.55% |
| CC(C)c1ccc(OP(C)(=O)Nc2ccc(SC(F)(F)F)cc2)cc1 (configuration not stated) | inactive: 0.125% |
| COc1ccc2c(c1O)-c1c(O)c(OC)cc3c1[C@H](C2)[N+](C)(C)CC3.O=[N+]([O-])c1cc([N+](=O)[O-])c([O-])c([N+](=O)[O-])c1[O-] | inactive: 4.45% |

| SMILES | inhibition |
| --- | --- |
| O=C(OC1CN2CCC1CC2)c1ccc([N+](=O)[O-])cc1 (configuration not stated) | inactive: -1.56% |
| O=C(OCCN1CCN(CCOCc2ccccc2)CC1)C(O)(c1ccccc1)c1ccccc1 | inactive: -2.21% |
| CCOC(=O)c1ccc(NP(C)(=O)Oc2ccc(F)cc2)cc1 (configuration not stated) | inactive: 1.93% |
| COc1ccc(OP(C)(=O)Nc2ccc(SC(F)(F)F)cc2)cc1 (configuration not stated) | inactive: -3.77% |
| CP(=O)(Nc1ccccc1)Oc1ccc(F)cc1 (configuration not stated) | inactive: -2.97% |
| CCCCCOc1ccc(NP(C)(=O)Oc2ccc(Cl)cc2Cl)cc1 (configuration not stated) | inactive: -2.24% |
| O=[N+]([O-])c1cc([N+](=O)[O-])c(OC2CCCCC2O)c([N+](=O)[O-])c1 (configuration not stated) | inactive: -6.02% |
| CCN(CC)CCCOC(=O)C(O)(c1ccccc1)C1CCCCC1 (configuration not stated) | inactive: -1.47% |
| CN(C)CCOC(=O)C(O)(c1ccccc1)C1CCCCC1 (configuration not stated) | inactive: -0.773% |
| COc1ccc(NP(C)(=O)Oc2ccccc2OC)cc1 (configuration not stated) | inactive: -3.74% |
| COc1ccc(OP(C)(=O)Nc2cccc(Br)c2)cc1 (configuration not stated) | inactive: 1.82% |
| O=[N+]([O-])c1cc([N+](=O)[O-])c(NCC2CCS(=O)(=O)C2)c([N+](=O)[O-])c1 (configuration not stated) | inactive: -5.76% |
| CCOP(C)(=S)SCC(=O)NC(C)(CC)C(=O)O (configuration not stated) | inactive: -2.91% |
| CP(=O)(Nc1ccc(SC(F)(F)F)cc1)Oc1ccc(F)cc1 (configuration not stated) | inactive: -0.692% |
| Cc1ccccc1NP(C)(=O)Nc1ccccc1C | inactive: -2.47% |
| CP(=O)(Nc1ccc2c(c1)OCCO2)Oc1ccccc1 (configuration not stated) | inactive: -3.59% |
| O=C(OCCCN1CCCC1)C(O)(c1ccccc1)C1CCCCC1 (configuration not stated) | inactive: 0.621% |
| COc1ccccc1OP(C)(=O)Nc1c(C)n(C)n(-c2ccccc2)c1=O (configuration not stated) | inactive: -0.594% |
| CCc1ccc(OP(C)(=O)Nc2cccnc2)cc1 (configuration not stated) | inactive: -0.994% |
| CP(=O)(Oc1ccccc1)N1CCOC1=O (configuration not stated) | inactive: 0.206% |
| COc1ccc(OP(C)(=O)Nc2ccc(Br)cc2)cc1 (configuration not stated) | inactive: 0.144% |
| CCN(CC)CC(O)COC(=O)C(O)(c1ccccc1)C1CCCCC1 (configuration not stated) | inactive: 2.75% |

| SMILES | inhibition |
| --- | --- |
| CN(C)C(=O)c1c([N+](=O)[O-])cc([N+](=O)[O-])cc1[N+](=O)[O-] | inactive: -1.1% |
| COc1ccccc1OP(C)(=O)Nc1ccccc1Br (configuration not stated) | inactive: 2.1% |
| CC(C)(C)c1ccc(OP(C)(=O)O)cc1 | inactive: 0.374% |
| CP(=O)(Nc1ccc(Cl)cc1)Oc1ccc(F)cc1 (configuration not stated) | inactive: 1.4% |
| CCOC(=O)c1ccc(NP(C)(=O)Oc2ccc(Cl)cc2)cc1 (configuration not stated) | inactive: -1.58% |
| CP(=O)(OC12CC3CC(CC(C3)C1)C2)OC12CC3CC(CC(C3)C1)C2 | inactive: 6.75% |
| Nc1ccc2c(ccc3cccnc32)n1.O=[N+]([O-])c1cc([N+](=O)[O-])c(O)c([N+](=O)[O-])c1 | inactive: 4.24% |
| COc1ccccc1OP(C)(=O)Nc1ccc(C)c(C)c1 (configuration not stated) | inactive: -0.994% |
| COc1ccc(OP(C)(=O)Nc2ccccc2Br)cc1 (configuration not stated) | inactive: -0.461% |
| Cc1cc(C)cc(OP(C)(=O)Nc2cccc(C(F)(F)F)c2)c1 (configuration not stated) | inactive: -3.89% |
| CP(=O)(Nc1ccc(Cl)cc1Cl)Oc1ccccc1 (configuration not stated) | inactive: -2.82% |
| CP(=O)(OCCOc1ccccc1)OCCOc1ccccc1 | inactive: 3.01% |
| Cc1nc2ccc3ccccc3c2o1.O=[N+]([O-])c1cc([N+](=O)[O-])c(O)c([N+](=O)[O-])c1 | inactive: 0.534% |
| COc1ccc(OP(C)(=O)Nc2ccccn2)cc1 (configuration not stated) | inactive: -6.61% |
| CN(C)CCOC(=O)C(O)(c1ccccc1)C1CCCC1 (configuration not stated) | inactive: 1.98% |
| COc1ccccc1OP(C)(=O)Nc1ccc(Br)cc1 (configuration not stated) | inactive: 2.42% |
| COc1ccccc1OP(C)(=O)Nc1ccc(C)cc1C (configuration not stated) | inactive: -0.689% |
| CP(=O)(Nc1ccccn1)Oc1ccccc1 (configuration not stated) | inactive: -1.31% |
| CCc1ccc(OP(C)(=O)O)cc1 | inactive: 0.148% |
| Cc1c(NP(C)(=O)Oc2ccc(C(C)C)cc2)c(=O)n(-c2ccccc2)n1C (configuration not stated) | inactive: 3.48% |
| O=[N+]([O-])c1cc([N+](=O)[O-])c(Nc2ccccn2)c([N+](=O)[O-])c1 | inactive: 0.126% |
